For test [1], the target named is T1, human NPY Y5 receptor (Homo sapiens, UniProt Q15761). The test can be described thus: Affinity for NPY Y5 receptor ([125I] peptide YY binding, CHO cell membranes). To be noted: read-out: binding IC50; inhibition of specific [125I] peptide YY binding, membranes of CHO cells expressing NPY Y5 receptor.
For test [2], the target named is T1, human NPY Y5 receptor. The test can be described thus: cAMP production inhibitory activity in CHO cells. To be noted: read-out: cAMP IC50; against 50 nM NPY inhibition of forskolin stimulated cAMP, CHO cells expressing human NPY Y5 receptor. A general note: Changes in cAMP serve as a functional read-out for many G protein-coupled receptors.

Amino acid sequences for entries named in this document (tags omitted).
UniProt Q15761, whole entry: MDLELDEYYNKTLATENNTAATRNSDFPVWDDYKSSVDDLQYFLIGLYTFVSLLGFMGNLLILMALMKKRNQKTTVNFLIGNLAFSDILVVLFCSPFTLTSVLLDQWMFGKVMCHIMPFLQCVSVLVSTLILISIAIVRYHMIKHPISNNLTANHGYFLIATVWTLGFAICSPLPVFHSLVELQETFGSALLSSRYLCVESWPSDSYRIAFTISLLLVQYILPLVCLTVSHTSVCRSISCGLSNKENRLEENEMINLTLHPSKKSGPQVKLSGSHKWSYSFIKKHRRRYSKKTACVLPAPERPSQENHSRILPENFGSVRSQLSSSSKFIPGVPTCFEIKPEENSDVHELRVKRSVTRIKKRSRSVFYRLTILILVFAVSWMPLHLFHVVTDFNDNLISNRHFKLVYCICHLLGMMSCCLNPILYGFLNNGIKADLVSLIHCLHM

The IC50 is the concentration at which inhibition is half-maximal.

Each structure is given as a SMILES string.

Take `CC(C)(C)S(=O)(=O)NCCCCC(=O)Nc1ccc(C(F)(F)F)cc1`: the IC50 in test [1] was 7.8 nM; in test [2] it was 39 nM.
For `CC(C)S(=O)(=O)NCCCCC(=O)Nc1ccc2c(c1)CCC2`, in that order: 9.9 nM and 79 nM.
In the same order, the values of `CC(C)S(=O)(=O)NCCCCC(=O)Nc1ccc(C(F)(F)F)cc1` are 6.1 nM and 57 nM.
In the same order, the values of `CC(C)(C)S(=O)(=O)NCCCCC(=O)Nc1ccc2c(c1)CCC2` are 7 nM and 86 nM.
Consider `CC(C)NC(=O)c1ccc(NC(=O)[C@H]2CC[C@H](NS(=O)(=O)C(C)(C)C)CC2)cc1`, for which the 50% inhibitory concentration (IC50) came out at 0.67 nM in test [1] and 5.5 nM in test [2].

The values are drawn from patent publication US7265130B2, “NPY Y5 antagonist” (Shionogi & Co., Ltd., priority 1999, dated 2007).
